{"source": "patent US10117950B2", "about": "“Compounds and compositions for the treatment of ocular disorders” (Graybug Vision, Inc., priority 2015, dated 2018)", "experiment": "Determination of drug solubility"}
{"smiles": "CCN[C@H]1C[C@H](C)S(=O)(=O)c2sc(S(=O)(=O)NC(=O)[C@H](C)OC(=O)[C@H](C)OC(=O)[C@H](C)O)cc21", "values": [{"measurement": "Solubility DCM", "setting": "DCM", "value": "<5000", "unit": "µg/mL"}, {"measurement": "Solubility DMSO", "setting": "DMSO", "value": "<2000", "unit": "µg/mL"}, {"measurement": "Solubility Water", "setting": "water / aqueous solvent", "value": ">50000", "unit": "µg/mL"}]}
